Target: Recombinant human PI3Kγ (full length human PI3K p110γ) (Homo sapiens, UniProt P48736)
Assay: Kinase assay of PI3Kγ (solid-phase lipid kinase assay)
Type: biochemical
Settings: read-out: in vitro; Table 1, isozyme not given

By UniProt entry, the sequences of proteins in these tests, tags left out.
UniProt P48736, whole entry: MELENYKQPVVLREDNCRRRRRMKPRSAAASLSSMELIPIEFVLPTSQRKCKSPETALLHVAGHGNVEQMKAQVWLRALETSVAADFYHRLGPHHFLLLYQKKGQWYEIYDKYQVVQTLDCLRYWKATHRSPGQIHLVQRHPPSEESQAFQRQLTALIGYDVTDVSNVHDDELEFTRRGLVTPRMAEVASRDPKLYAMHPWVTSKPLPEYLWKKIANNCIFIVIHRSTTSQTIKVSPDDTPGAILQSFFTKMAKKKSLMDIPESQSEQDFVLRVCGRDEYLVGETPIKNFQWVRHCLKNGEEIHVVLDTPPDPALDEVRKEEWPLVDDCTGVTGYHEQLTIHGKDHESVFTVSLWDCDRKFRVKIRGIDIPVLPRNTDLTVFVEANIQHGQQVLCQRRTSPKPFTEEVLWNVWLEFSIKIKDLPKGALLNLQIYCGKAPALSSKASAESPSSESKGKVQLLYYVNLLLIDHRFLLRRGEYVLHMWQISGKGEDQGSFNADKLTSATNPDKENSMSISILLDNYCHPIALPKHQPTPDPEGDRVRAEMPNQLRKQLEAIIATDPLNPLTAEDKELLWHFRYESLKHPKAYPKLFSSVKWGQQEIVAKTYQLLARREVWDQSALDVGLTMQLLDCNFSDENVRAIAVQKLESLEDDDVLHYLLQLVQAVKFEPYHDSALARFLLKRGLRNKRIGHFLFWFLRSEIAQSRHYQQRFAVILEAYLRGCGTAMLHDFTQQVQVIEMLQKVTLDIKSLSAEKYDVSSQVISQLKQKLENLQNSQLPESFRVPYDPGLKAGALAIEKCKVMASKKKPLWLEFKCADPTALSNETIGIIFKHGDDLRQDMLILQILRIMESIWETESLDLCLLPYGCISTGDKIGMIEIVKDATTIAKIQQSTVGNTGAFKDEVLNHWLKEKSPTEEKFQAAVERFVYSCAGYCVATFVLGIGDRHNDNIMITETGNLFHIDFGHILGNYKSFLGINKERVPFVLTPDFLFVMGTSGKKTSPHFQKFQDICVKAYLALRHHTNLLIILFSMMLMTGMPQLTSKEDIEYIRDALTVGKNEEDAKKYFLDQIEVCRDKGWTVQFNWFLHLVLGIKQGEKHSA

COc1c(C)ccc2c1N=C(/C=C(\O)c1ccc(NC(C)=O)nc1)N1CCN=C21 [Example 1-33]
IC50: < 100 nM

Reference: patent US7511041B2, “Fused azole-pyrimidine derivatives” (Bayer Pharmaceuticals Corporation, priority 2002, dated 2009)
